TCR activator – T cell receptor activation. primary human leukocytes, anti-CD3, IL-2 HTRF, 48 h. AID 504894. 330,000 tested, under 10 active. Potency, µM (titrated, usually from 9.22 µM), most hits filed as activators
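Activity was scored as IL-2 release from primary human leukocytes given only a TCR signal (a-CD3 beads) plus compound for 48 hr. Detection used a two-antibody HTRF format read at 665nm.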
Nrf2 activator – activates Nrf2 signaling; AREc32 ARE-luciferase reporter (MCF7-derived line), luminescence, 24 h; Potency, µM (top dose mostly 46.1 µM), hits mostly activators; 410,000 compounds, 0.31% hits; AID 624171; further: nearly all actives have a fitted effect of over 65% in size
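Quantitative high-throughput format: AREc32 reporter cells, 1000 per well, received compound by pin transfer and were incubated 24 hr at 37 deg C, 5% CO2, before Steady-Glo luminescence detection.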
ClpP mod – qHTS Assay for Activators of ClpP | purified B. subtilis ClpP, FRET peptide cleavage, 20 min | Potency, µM (top dose mostly 57.5 µM) | 340,000 compounds, 1.9% hits | ATP-dependent Clp protease proteolytic subunit (Bacillus subtilis (strain 168)), P80244; active means well fitted falling curve with a large enough effect; inconclusive means small, poorly fitted or top-dose-only effect; inactive means no such curve, though single readings can be large or run the other way; further: the source files actives as falling curves though it sought activators and does not explain the sign; nearly all actives have a fitted effect of over 65% in size
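ClpP 10 microg/mL final, pH 8 Tris/KCl buffer with BSA, glycerol, Tween-20; compound pinned in; FRET-FV substrate; RT 20 min; Ex320/Em430; ΔFRET vs ADEP 5.8 microM, DMSO, no enzyme.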
miR-21 reporter – miR-21 reporter, rising signal | HeLa miR-21 FLuc reporter, luciferase, 48 h | Potency, µM (highest dose often 38.3 µM) | 340,000 tested, under 10 active | AID 2288; active = well fitted rising curve with a large enough effect; inconclusive = small, poorly fitted or top-dose-only effect; inactive = no such curve, though single readings can be large or run the other way;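 further: miR-21 action dims this reporter so a rising signal means less miR-21 action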
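Using DMEM plus 10% FBS, HeLa miR-21-FLuc cells are incubated with test compounds (final up to about 40uM) for 48 hours; firefly luciferase signal is then imaged following reagent-mediated lysis.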
A549 viability – A549 cytotoxicity, counter-screen for Nrf2 inhibitors. Potency, µM (series often up to 46 µM), actives largely listed as inhibitors. 390,000 compounds, 0.16% hits. A549 ARE-Fluc cells, CellTiter-Fluor viability, 18-24 h. AID 504648
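Cytotoxicity counterscreen: CellTiter-Fluor fluorescence was measured in A549 ARE_Fluc cells after 18-24 h of compound exposure in a concentration series. The subsequent BugLite luminescent read reports ARE-luciferase activity.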
Nrf2 inh – Nrf2 pathway inhibition; 360,000 compounds, 2.1% hits; Potency, µM (doses to about 46 µM), hits mostly inhibitors; A549 ARE-Fluc reporter, luciferase luminescence, 18-24 h; further: nearly all actives have a fitted effect of over 60% in size
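Nrf2 activity is the BugLite luminescence, read 15 min after reagent at room temperature, following CellTiter-Fluor cytotoxicity readout (30 min, 37C). Compound titrations were applied for 18-24 h to 5000 A549 ARE_Fluc cells/well in 5% FBS OPTI-MEM.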
ClpP validation – validation of B. subtilis ClpP protease hits (inhibitors); shares compounds with ClpP mod; purified B. subtilis ClpP, FRET-FV substrate cleavage, 20 min; Potency, µM (titrated, usually from 57.5 µM), actives largely listed as inhibitors; 470 compounds, 40% hits; AID 743245; further: nearly all actives have a fitted effect of over 70% in size
Each line names hits and unclear results; the compound was inactive in the other large screens (follow-up assays come after a bar, where they were run). This is a sample that favours compounds with a hit; in the whole collection about 3.7% have one here. Unless noted, the call rests on the fitted dose curve; in most records, active means well fitted curve in the direction sought with a large enough effect; inconclusive means small, poorly fitted or top-dose-only effect, or another doubt; inactive means no such curve, though single readings can be large; an effect the other way counts as inactive or inconclusive.

CCOC(=O)c1cc2occc2n1CC(=O)N1CCCc2ccccc21	none | ClpP validation inactive
COc1ccc(OC)c(NC(=O)c2cc3c(Cl)nc4ccccc4c3s2)c1	none | ClpP validation inactive
Clc1ccc(CNc2ncnc3nc[nH]c23)cc1	A549 viability inconclusive (no result: TCR activator, Nrf2 activator, miR-21 reporter)
Cc1ccc(/C=C/c2nc3ccccc3n2S(=O)(=O)c2cccc(Cl)c2)cc1	ClpP mod 10µM, miR-21 reporter inconclusive (no result: TCR activator, Nrf2 inh) | ClpP validation inconclusive
CCOc1ccc(/C=C/c2nc3ccccc3n2S(=O)(=O)c2cccc(Cl)c2)cc1	Nrf2 inh inconclusive (no result: TCR activator)
COc1cc(-c2nnc(SCCOc3ccc(Cl)cc3C)o2)cc(OC)c1OC	Nrf2 inh inconclusive (no result: TCR activator)
COc1ccccc1CNC(=O)C1CCC(CNS(=O)(=O)c2ccccc2)CC1 (centres undefined)	none
CCCSc1nc(-c2ccccc2)[nH]c1S(=O)(=O)c1ccc(C)cc1	Nrf2 inh inconclusive (no result: TCR activator)
COc1ccc(C(=O)Nc2ccc(N3CCOCC3)cc2)cc1S(=O)(=O)NC1CCCC1	ClpP mod 8.9µM | ClpP validation inactive
CC1CCN(c2nc3ccc(C(=O)NCc4ccccc4Cl)cc3s2)CC1	none (no result: TCR activator)
COc1ccc(C(=O)Nc2ccccc2-c2nnn(CC(=O)NCc3ccco3)n2)cc1	none | ClpP validation inconclusive
O=C(Cn1nnc(-c2ccccc2NC(=O)c2ccccc2F)n1)NCc1ccco1	none
COc1ccc(OC)c(CNC(=O)Cc2ccc(NC(=O)N3CCCCc4ccccc43)cc2)c1	none (no result: TCR activator)
CCc1cccc(NC(=O)Cn2c(=O)n(CC3CCC(C(=O)NC)CC3)c(=O)c3sccc32)c1 (centres undefined)	Nrf2 inh inconclusive (no result: TCR activator)
COc1ccc(S(=O)(=O)N2CCOCC2)cc1NC(=O)c1ccccc1-c1ccc(C(F)(F)F)cc1	none | ClpP validation inconclusive
COc1ccc(NC2=CC(c3ccc(F)cc3)N(c3ccc(OC)cc3)C2=O)cc1 (centres undefined)	none | ClpP validation inconclusive
COc1ccc(NC2=CC(c3ccc(OC)cc3)N(c3ccc(OC)cc3)C2=O)cc1 (centres undefined)	none
Clc1ccc2nc3ccccn3c2c1	ClpP mod 2.5µM | ClpP validation inconclusive
N#Cc1ccc2c(c1)nc1ccccn12	none (no result: ClpP mod)
Cc1nn2c(NCC(C)C)c3c(nc2c1-c1ccccc1)CCC3	ClpP mod 7.9µM, Nrf2 inh inconclusive | ClpP validation 4.9µM
CCc1ccc(NC(=O)c2c(Cl)nc(C)c(Cl)c2C)cc1	Nrf2 inh inconclusive | ClpP validation inactive
Cc1ccccc1NC(=O)c1c(Cl)nc(C)c(Cl)c1C	none
CCN1CCN(CCCNC(=O)Cn2nc(C)n3c(cc4cc(C)ccc43)c2=O)CC1	ClpP mod inconclusive (no result: TCR activator) | ClpP validation inconclusive
Cc1cccc(-c2nc(C(N)=O)c3c(n2)n(-c2ccc4c(c2)OCO4)c(=O)n3C)c1	none (no result: TCR activator)
CCOC(=O)N1CCN(S(=O)(=O)c2ccc(C(=O)Nc3nc4ccc(F)cc4s3)cc2)CC1	none
CCOC(=O)N1CCN(S(=O)(=O)c2ccc(C(=O)Nc3nc4ccccc4s3)cc2)CC1	none | ClpP validation inconclusive
COCCCNC(=O)CCCn1c(SCC(=O)c2ccc(Br)cc2)nc2c(sc3ccccc32)c1=O	none (no result: TCR activator)
Cc1ccc(-c2cn3c(n2)sc2cc(C(=O)NCc4cccs4)ccc23)cc1	ClpP mod 7.1µM (no result: TCR activator) | ClpP validation 27µM
CCOc1ccccc1N1CC(C(=O)Nc2ccc3c(c2)OCCO3)CC1=O (centres undefined)	ClpP mod 7.9µM (no result: TCR activator) | ClpP validation inactive
Cc1ccc(NC(=O)CCC(=O)NNC(=O)COc2ccc([N+](=O)[O-])cc2)c(C)c1	none
CCCc1cc(=O)oc2cc(C)cc(OCc3nn[nH]n3)c12	ClpP mod 8.9µM | ClpP validation 34µM
CCCc1cc(=O)oc2cc(C)cc(OCC(=O)NC3CC3)c12	none
COc1cc(/C=C2/SC(=S)N(CC(=O)NNC(=O)c3ccc(F)cc3)C2=O)cc(OC)c1OC	none (no result: TCR activator, miR-21 reporter, A549 viability, Nrf2 inh)
Cc1ccc(NC(=O)CN2C(=O)CCn3nc(-c4cccn4C)cc32)c(Cl)c1	none (no result: TCR activator, Nrf2 inh)
CCn1cnc2sc(C(=O)Nc3ccccc3OC)c(C)c2c1=O	none
COc1ccccc1NC(=O)c1sc2ncn(Cc3ccccc3C)c(=O)c2c1C	none | ClpP validation inconclusive
COc1ccc2nc(NC(=O)c3ccc(-n4nc(C)cc4C)cc3)sc2c1	none | ClpP validation 27µM
COc1ccc2nc(NC(=O)c3ccc(F)cc3)sc2c1	none (no result: ClpP mod)
COc1cccc(N2CC(NC(=O)c3ccc(S(=O)(=O)N4CCCC4)cc3)CC2=O)c1 (centres undefined)	none (no result: TCR activator, Nrf2 inh)
NC(=O)c1cccc(-c2ccnc3c2CC(C(=O)NCCc2ccccc2)O3)c1 (centres undefined)	none (no result: TCR activator, miR-21 reporter, A549 viability, Nrf2 inh)
O=C(NCCc1ccccc1)C1Cc2c(-c3ccccc3)ccnc2O1 (centres undefined)	ClpP mod inconclusive (no result: TCR activator, miR-21 reporter, A549 viability, Nrf2 inh) | ClpP validation inactive
CCOc1ccc(NC(=O)c2ccc(-c3ccccc3)s2)cc1	none (no result: TCR activator)
CNC(=O)c1ccc(-c2ccccc2)s1	ClpP mod 3.5µM (no result: Nrf2 inh) | ClpP validation 27µM
O=C(Nc1ccc(-c2cn3ccccc3n2)cc1)c1ccc(Cl)cc1	none | ClpP validation inactive
CCCN(CCC)C(=O)C1CCN(c2ccc(S(=O)(=O)N3CCOCC3)cc2[N+](=O)[O-])CC1	Nrf2 inh inconclusive
O=S(=O)(c1cc(Cl)cc(Cl)c1)N1CCN(c2nc(-c3cccs3)nc3ccccc23)CC1	none (no result: TCR activator, Nrf2 activator, miR-21 reporter)
O=S(=O)(c1ccc2c(c1)CCCC2)N1CCN(c2nc(-c3cccs3)nc3ccccc23)CC1	ClpP mod 8.9µM (no result: TCR activator, Nrf2 activator, miR-21 reporter) | ClpP validation 24µM
O=S(=O)(c1ccc2c(Cl)cccc2c1)N1CCN(c2nc(-c3cccs3)nc3ccccc23)CC1	ClpP mod 4.5µM (no result: TCR activator, Nrf2 activator, miR-21 reporter) | ClpP validation 22µM
CCS(=O)(=O)N1CC(=O)N(c2ccc(C)c(C)c2)C(C)(C(=O)NC2CCCCC2)C1 (centres undefined)	none (no result: TCR activator)
CCOc1ccccc1NC(=O)N1CCc2c(sc(C)c2CC)C1c1ccccc1 (centres undefined)	none (no result: TCR activator, Nrf2 inh)
O=C(Cc1ccccc1Nc1c(Cl)cccc1Cl)OCO/N=[N+](\[O-])N1CCCC1	none (no result: TCR activator, Nrf2 activator, ClpP mod, miR-21 reporter)
COc1ccc(NC(=O)c2oc3ccccc3c2NC(=O)c2cc3ccccc3o2)c(OC)c1	ClpP mod inconclusive (no result: TCR activator)
COc1ccc(NC(=O)c2oc3ccccc3c2NC(=O)c2ccco2)c(OC)c1	none (no result: Nrf2 inh) | ClpP validation inconclusive

Screening results as filed in PubChem BioAssay.
